Reference: publication PMC9396613 (ACS chemical biology, 2022)

Chains of the proteins cited; added tags and fusions are not shown. Lines headed by an entry give the natural chain unless they say otherwise; changes in a name come on top.
UniProt P70604, whole entry V420I: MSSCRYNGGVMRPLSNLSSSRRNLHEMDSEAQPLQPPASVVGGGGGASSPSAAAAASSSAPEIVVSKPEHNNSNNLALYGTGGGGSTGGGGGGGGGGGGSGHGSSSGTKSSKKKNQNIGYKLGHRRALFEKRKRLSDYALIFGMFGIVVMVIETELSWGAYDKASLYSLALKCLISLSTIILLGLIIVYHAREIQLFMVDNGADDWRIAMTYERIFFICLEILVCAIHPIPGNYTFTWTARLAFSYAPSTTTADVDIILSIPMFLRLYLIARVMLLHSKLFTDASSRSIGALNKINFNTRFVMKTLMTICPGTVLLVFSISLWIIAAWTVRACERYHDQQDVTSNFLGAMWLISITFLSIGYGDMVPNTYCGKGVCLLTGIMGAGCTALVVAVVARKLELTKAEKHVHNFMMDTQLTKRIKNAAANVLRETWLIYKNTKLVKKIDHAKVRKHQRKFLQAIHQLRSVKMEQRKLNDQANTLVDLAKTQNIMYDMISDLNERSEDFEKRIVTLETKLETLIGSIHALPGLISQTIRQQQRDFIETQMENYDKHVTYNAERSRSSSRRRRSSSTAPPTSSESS
UniProt Q9UGI6, whole entry: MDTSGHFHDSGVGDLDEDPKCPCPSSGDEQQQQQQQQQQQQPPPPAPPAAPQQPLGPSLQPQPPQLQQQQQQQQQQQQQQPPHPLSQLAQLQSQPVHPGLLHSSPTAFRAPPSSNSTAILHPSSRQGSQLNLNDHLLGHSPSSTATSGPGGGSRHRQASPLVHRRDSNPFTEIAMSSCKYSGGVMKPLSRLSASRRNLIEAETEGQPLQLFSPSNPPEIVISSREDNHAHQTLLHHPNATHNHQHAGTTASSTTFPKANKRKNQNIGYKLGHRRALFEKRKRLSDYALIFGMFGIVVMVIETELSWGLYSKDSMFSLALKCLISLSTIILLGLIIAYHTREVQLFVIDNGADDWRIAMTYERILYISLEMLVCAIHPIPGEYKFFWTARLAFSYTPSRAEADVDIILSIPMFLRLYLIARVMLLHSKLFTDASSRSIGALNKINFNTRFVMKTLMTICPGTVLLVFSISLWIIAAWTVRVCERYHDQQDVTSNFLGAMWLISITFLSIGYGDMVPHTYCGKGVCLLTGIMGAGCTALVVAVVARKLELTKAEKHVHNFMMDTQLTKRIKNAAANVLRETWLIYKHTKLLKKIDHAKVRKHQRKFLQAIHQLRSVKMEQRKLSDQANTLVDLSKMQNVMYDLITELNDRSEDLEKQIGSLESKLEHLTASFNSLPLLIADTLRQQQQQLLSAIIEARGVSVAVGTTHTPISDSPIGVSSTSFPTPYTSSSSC
UniProt Q9UGI6, whole entry I568V: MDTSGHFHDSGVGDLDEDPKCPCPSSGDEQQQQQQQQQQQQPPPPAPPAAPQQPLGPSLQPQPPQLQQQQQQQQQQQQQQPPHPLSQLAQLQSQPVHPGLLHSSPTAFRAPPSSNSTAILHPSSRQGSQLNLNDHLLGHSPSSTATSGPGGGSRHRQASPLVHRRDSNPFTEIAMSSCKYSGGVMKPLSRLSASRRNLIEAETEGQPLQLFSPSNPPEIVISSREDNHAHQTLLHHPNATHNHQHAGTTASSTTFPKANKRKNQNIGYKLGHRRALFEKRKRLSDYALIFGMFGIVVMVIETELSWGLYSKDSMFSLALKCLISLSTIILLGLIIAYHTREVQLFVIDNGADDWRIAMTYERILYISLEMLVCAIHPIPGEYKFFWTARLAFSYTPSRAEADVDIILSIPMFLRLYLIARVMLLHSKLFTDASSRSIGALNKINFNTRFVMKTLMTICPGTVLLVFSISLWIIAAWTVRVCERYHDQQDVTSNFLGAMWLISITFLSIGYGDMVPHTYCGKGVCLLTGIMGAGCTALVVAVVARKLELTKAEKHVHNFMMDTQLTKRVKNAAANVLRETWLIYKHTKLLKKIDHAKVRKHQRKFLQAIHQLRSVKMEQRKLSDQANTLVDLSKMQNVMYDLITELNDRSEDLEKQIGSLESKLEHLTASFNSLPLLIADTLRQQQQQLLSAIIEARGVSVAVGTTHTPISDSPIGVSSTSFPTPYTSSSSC

System: rat KCa2.2a channels
Assay: not given
Details: read-out: EC50 on rat KCa2.2a (mean ± SD); cited from earlier work

| Structure (SMILES) | EC50 |
| --- | --- |
| Cc1cc(C)n(-c2cc(Nc3ccc(C(F)(F)F)c(Cl)c3)nc(N)n2)n1 | > 100 µM |
| Cc1cc(C)n(-c2cc(Nc3ccc(Cl)cc3F)nc(N)n2)n1 | > 100 µM |
| Cc1cc(Nc2cccc(F)c2F)nc(-n2nc(C)cc2C)n1 | 5 µM |
| Cc1cc(C)n(-c2cc(Nc3cc(Cl)ccc3F)nc(N)n2)n1 | > 100 µM |
| Cc1cc(Nc2ccc([N+](=O)[O-])cc2)nc(-n2nc(C)cc2C)n1 | > 100 µM |
| Cc1cc(C)n(-c2cc(Nc3cc(F)ccc3F)nc(N)n2)n1 | > 100 µM |
| Cc1cc(C)n(-c2cc(Nc3ccc(F)c(Cl)c3)nc(N)n2)n1 | > 100 µM |
| Cc1cc(Nc2cc(F)ccc2F)nc(-n2nc(C)cc2C)n1 | 1.9 µM |
| Cc1cc(C)n(-c2nc(N)cc(Nc3ccc(F)c(Cl)c3)n2)n1 | 6.7 µM |
| Cc1cc(C)n(-c2cc(Nc3cccc(Cl)c3)nc(N)n2)n1 | > 100 µM |
| Cc1cc(Nc2ccc(C(F)(F)F)c(Cl)c2)nc(-n2nc(C)cc2C)n1 | 3.3 µM |
| Cc1cc(C)n(-c2cc(Nc3cc(F)ccc3Cl)nc(N)n2)n1 | > 100 µM |
| Cc1cc(Nc2ccc(S)cc2)nc(-n2nc(C)cc2C)n1 | > 100 µM |
| Cc1cc(Nc2ccc(F)c(Cl)c2)nc(-n2nc(C)cc2C)n1 | 1 µM |
| Cc1cc(Nc2ccc(Cl)cc2F)nc(-n2nc(C)cc2C)n1 | 2 µM |

Biological target: KCa2.2a_V420I (Rattus norvegicus, UniProt P70604, V420I)
Assay: Inside-out patch clamp, potentiation of mutant rat KCa2.2a_V420I channels
Details: EC50 for potentiation, Figure S4E,F

| Structure (SMILES) | sensitivity of KCa2.2a_V420I channel to compound versus KCa2.2a_WT |
| --- | --- |
| Cc1cc(C)n(-c2nc(N)cc(Nc3ccc(F)c(Cl)c3)n2)n1 | increased the sensitivity |

Same assay, conditions: normalized to maximal currents induced by 10 μM Ca2+

| Structure (SMILES) | Emax on KCa2.2a_V420I versus KCa2.2a_WT |
| --- | --- |
| Cc1cc(C)n(-c2nc(N)cc(Nc3ccc(F)c(Cl)c3)n2)n1 | did not change |

Biological target: T1, KCa2.3 channels (Homo sapiens, UniProt Q9UGI6)
Assay: not given
Details: read-out: EC50 on human KCa2.3 (mean ± SD); cited from earlier work

| Structure (SMILES) | EC50 |
| --- | --- |
| Cc1cc(Nc2ccc(F)c(Cl)c2)nc(-n2nc(C)cc2C)n1 | 0.2 µM |

System: ET cells
Assay: Flow-induced cytosolic Ca2+ measurements (Fura-2AM) in ET cells
Assay type: cell-based, mouse
Details: 20 μM

| Structure (SMILES) | flow-induced peak Ca2+ values compared with control |
| --- | --- |
| Cc1cc(C)n(-c2nc(N)cc(Nc3ccc(F)c(Cl)c3)n2)n1 | significantly increased |

Same assay, conditions: 20 μM, shear stress 5 dyn/cm2

| Structure (SMILES) | flow-induced cytosolic Ca2+ transients compared with control |
| --- | --- |
| Cc1cc(C)n(-c2nc(N)cc(Nc3ccc(F)c(Cl)c3)n2)n1 | more prominent Ca^2+ transients |

Biological target: KCa2.3_I568V mutant channel (Homo sapiens, UniProt Q9UGI6, I568V)
Assay: Inside-out patch clamp, potentiation of mutant human KCa2.3_I568V channels
Details: EC50 of mutant versus WT

| Structure (SMILES) | fold less sensitive, KCa2.3_I568V than KCa2.3_WT |
| --- | --- |
| Cc1cc(C)n(-c2nc(N)cc(Nc3ccc(F)c(Cl)c3)n2)n1 | ~ 20 fold |

Same assay, conditions: normalized to maximal currents induced by 10 μM Ca2+

| Structure (SMILES) | Emax on KCa2.3_I568V compared with KCa2.3_WT |
| --- | --- |
| Cc1cc(C)n(-c2nc(N)cc(Nc3ccc(F)c(Cl)c3)n2)n1 | did not affect the Emax values |

Same assay, conditions: read-out: EC50 for potentiation of KCa2.3_I568V mutant channel; 0.15 μM Ca2+; mean ± SD, n = 6

| Structure (SMILES) | EC50 |
| --- | --- |
| Cc1cc(C)n(-c2nc(N)cc(Nc3ccc(F)c(Cl)c3)n2)n1 | 6.2 µM |

System: ET cells
Assay: Cilia length measurement in ET cells by immunostaining
Assay type: cell-based, mouse
Details: 20 μM for two days, acetylated-α-tubulin staining, mean ± SD

| Structure (SMILES) | cilia length |
| --- | --- |
| Cc1cc(C)n(-c2nc(N)cc(Nc3ccc(F)c(Cl)c3)n2)n1 | 6.1 ± 0.6 μm |

Same assay, conditions: 20 μM, ciliary marker Arl13b

| Structure (SMILES) | cilia length (Arl13b marker) |
| --- | --- |
| Cc1cc(C)n(-c2nc(N)cc(Nc3ccc(F)c(Cl)c3)n2)n1 | increased cilia length |

Biological target: T1, KCa2.3 channels
Assay: Inside-out patch clamp, potentiation of human KCa2.3 channels expressed in HEK293 cells
Assay type: cell-based
Details: inside-out patch, HEK293 cells, 0.15 μM Ca2+, currents at −90 mV; mean ± SD

| Structure (SMILES) | EC50 on human KCa2.3 (mean ± SD, μM) |
| --- | --- |
| Cc1cc(C)n(-c2nc(N)cc(Nc3ccc(F)c(Cl)c3)n2)n1 | submicromolar |
| Cc1cc(Nc2ccc(C(F)(F)F)c(Cl)c2)nc(-n2nc(C)cc2C)n1 | submicromolar |

Same assay, conditions: ratio of EC50 values, Table 1

| Structure (SMILES) | selectivity for human KCa2.3 channels over rat KCa2.2a channels |
| --- | --- |
| Cc1cc(C)n(-c2nc(N)cc(Nc3ccc(F)c(Cl)c3)n2)n1 | ~ 21 fold |
| Cc1cc(Nc2ccc(C(F)(F)F)c(Cl)c2)nc(-n2nc(C)cc2C)n1 | ~ 6.3 fold |

Same assay, conditions: read-out: EC50 on human KCa2.3 (mean ± SD); inside-out patch, HEK293 cells, 0.15 μM Ca2+, currents at −90 mV; mean ± SD

| Structure (SMILES) | EC50 |
| --- | --- |
| Cc1cc(C)n(-c2cc(Nc3ccc(C(F)(F)F)c(Cl)c3)nc(N)n2)n1 | > 100 µM |
| Cc1cc(C)n(-c2cc(Nc3ccc(Cl)cc3F)nc(N)n2)n1 | > 100 µM |
| Cc1cc(Nc2cccc(F)c2F)nc(-n2nc(C)cc2C)n1 | 2.7 µM |
| Cc1cc(C)n(-c2cc(Nc3cc(Cl)ccc3F)nc(N)n2)n1 | > 100 µM |
| Cc1cc(Nc2ccc([N+](=O)[O-])cc2)nc(-n2nc(C)cc2C)n1 | > 100 µM |
| Cc1cc(C)n(-c2cc(Nc3cc(F)ccc3F)nc(N)n2)n1 | > 100 µM |
| Cc1cc(C)n(-c2cc(Nc3ccc(F)c(Cl)c3)nc(N)n2)n1 | > 100 µM |
| Cc1cc(Nc2cc(F)ccc2F)nc(-n2nc(C)cc2C)n1 | 1.5 µM |
| Cc1cc(C)n(-c2nc(N)cc(Nc3ccc(F)c(Cl)c3)n2)n1 | 0.3 µM and 0.31 µM |
| Cc1cc(C)n(-c2cc(Nc3cccc(Cl)c3)nc(N)n2)n1 | > 100 µM |
| Cc1cc(Nc2ccc(C(F)(F)F)c(Cl)c2)nc(-n2nc(C)cc2C)n1 | 0.52 µM |
| Cc1cc(C)n(-c2cc(Nc3cc(F)ccc3Cl)nc(N)n2)n1 | > 100 µM |
| Cc1cc(Nc2ccc(S)cc2)nc(-n2nc(C)cc2C)n1 | > 100 µM |
| Cc1cc(Nc2ccc(Cl)cc2F)nc(-n2nc(C)cc2C)n1 | 1.2 µM |

Several values for one entry are separate records, joined by “and”; a condition that tells them apart may be missing. Identical values can stand only once.
